The values that follow come from US20090186811A1, “Y2 Selective Receptor Agonists for Therapeutic Interventions” (priority 2004, published 2009).

Chains of the proteins cited; added tags and fusions are not shown. Lines headed by an entry give the natural chain unless they say otherwise; changes in a name come on top.
UniProt P49146, whole entry: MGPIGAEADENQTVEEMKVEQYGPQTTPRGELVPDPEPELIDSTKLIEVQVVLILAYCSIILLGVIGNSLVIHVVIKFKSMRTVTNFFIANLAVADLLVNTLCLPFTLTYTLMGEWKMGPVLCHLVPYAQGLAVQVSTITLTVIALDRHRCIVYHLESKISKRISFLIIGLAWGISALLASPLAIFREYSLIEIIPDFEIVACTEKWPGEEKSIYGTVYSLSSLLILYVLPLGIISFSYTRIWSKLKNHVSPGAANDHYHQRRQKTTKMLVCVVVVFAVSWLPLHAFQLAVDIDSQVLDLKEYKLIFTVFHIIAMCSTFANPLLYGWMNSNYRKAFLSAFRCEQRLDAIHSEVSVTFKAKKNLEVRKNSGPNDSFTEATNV
UniProt P25929, whole entry: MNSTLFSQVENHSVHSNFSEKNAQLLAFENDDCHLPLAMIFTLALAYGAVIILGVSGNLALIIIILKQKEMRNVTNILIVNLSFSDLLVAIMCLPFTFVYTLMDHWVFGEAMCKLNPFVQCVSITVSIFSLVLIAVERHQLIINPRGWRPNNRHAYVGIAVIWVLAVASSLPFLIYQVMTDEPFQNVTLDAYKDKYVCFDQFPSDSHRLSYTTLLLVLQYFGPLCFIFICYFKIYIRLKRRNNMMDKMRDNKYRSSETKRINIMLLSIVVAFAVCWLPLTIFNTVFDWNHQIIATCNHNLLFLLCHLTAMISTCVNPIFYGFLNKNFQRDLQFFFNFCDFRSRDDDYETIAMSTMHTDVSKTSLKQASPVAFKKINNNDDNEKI
UniProt P50391: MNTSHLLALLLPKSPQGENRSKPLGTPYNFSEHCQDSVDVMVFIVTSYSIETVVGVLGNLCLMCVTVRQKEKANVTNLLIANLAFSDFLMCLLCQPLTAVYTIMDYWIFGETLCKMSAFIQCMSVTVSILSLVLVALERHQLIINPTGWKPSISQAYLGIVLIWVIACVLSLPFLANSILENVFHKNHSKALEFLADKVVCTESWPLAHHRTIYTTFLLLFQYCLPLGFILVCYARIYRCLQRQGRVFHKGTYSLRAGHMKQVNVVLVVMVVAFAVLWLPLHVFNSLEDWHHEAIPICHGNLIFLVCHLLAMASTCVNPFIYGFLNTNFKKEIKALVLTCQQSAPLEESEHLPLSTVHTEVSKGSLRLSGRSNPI

Positions of bridges follow the written chain, without caps; N, C: chain ends. Non-standard residues stand in square brackets, D forms with d. Residues, ends and D or L forms follow the SMILES beside them. Aoc = NCCCCCCCC(=O)O

The target in test [1] is T1, human Y2 receptor (Homo sapiens, UniProt P49146).
T1 construct: expressed in transfected cells; host or cells: COS-7
The test is described as follows: Human Y2 receptor affinity assay (competition binding). The conditions noted are these: receptor recognition profile.

Test [2] addresses T2, human Y1 receptor (Homo sapiens, UniProt P25929).
T2 construct: expressed in transfected cells; host or cells: COS-7
The test is described as follows: Human Y1 receptor affinity assay (competition binding). The conditions noted are these: receptor recognition profile.

A further test addresses T3, human Y4 receptor (Homo sapiens, UniProt P50391).
T3 construct: expressed in transfected cells; host or cells: COS-7
The test is described as follows: Human Y4 receptor affinity assay (competition binding). As to conditions: receptor recognition profile.

In test [3] the target is T2, human Y1 receptor. The test is described as follows: Human Y1 receptor potency assay (inositol phosphate turnover). Format: cell-based. As to conditions: relative to PYY3-36.
The target of test [4] is T1, human Y2 receptor. The test is described as follows: Human Y2 receptor potency assay (inositol phosphate turnover). Format: cell-based. As to conditions: relative to PYY3-36.
Test [5] can be described thus: Binding to glycosaminoglycans, immobilized heparin (HiTrap heparin-Sepharose). As to conditions: FIG. 5.

For PYY2-36 [SEQ ID NO: 4], in the test with human Y2 receptor [1], the “affinity for / recognition by the Y2 receptor (in words)” value is recorded as “high affinity equal to, for example, PYY3-36”. In addition, the “affinity for / recognition by the Y1 receptor (in words)” value with human Y1 receptor [2] is recorded as “poor affinity”.

Take [Lys28,Glu32]PYY25-36 [SEQ ID NO: 19]: the “affinity for / recognition by the Y4 receptor (in words)” value at human Y4 receptor was “not recognized”. Moreover, the “affinity for / recognition by the Y1 receptor (in words)” value at human Y1 receptor [2] was “basically not recognized”.

As for `CC[C@H](C)[C@@H]1NC(=O)[C@@H](NC(=O)[C@@H](N)Cc2ccc(O)cc2)CSSC[C@H](C(=O)N[C@@H](CC(C)C)C(=O)N[C@@H](CC(N)=O)C(=O)N[C@@H](CC(C)C)C(=O)N[C@H](C(=O)N[C@H](C(=O)N[C@@H](CCCNC(=N)N)C(=O)N[C@@H](CCC(N)=O)C(=O)N[C@@H](CCCNC(=N)N)C(=O)N[C@@H](Cc2ccc(O)cc2)C(N)=O)[C@@H](C)O)C(C)C)NC(=O)[C@H](Cc2c[nH]cn2)NC(=O)[C@H](CCCNC(=N)N)NC(=O)CCCCCCCNC(=O)[C@H](CCCCN)NC1=O` [SEQ ID NO: 16, [Cys2,Aoc5-24,D-Cys27]PYY] (H-YCIK[Aoc]RH[dC]LNLVTRQRY-NH2; disulfide 2-8; N-terminus assumed), the “selectivity towards the Y1 receptor better than PYY3-36” value on human Y1 receptor [3] is “at least 10 fold”. Also, on human Y2 receptor [4], the “Y2 EC50 higher than PYY3-36” value is “approx. 10 fold”. For the compound [D-Ala2]PYY2-36 [SEQ ID NO: 22], the “affinity for / recognition by the Y2 receptor (in words)” value in the test with human Y2 receptor [1] was “high affinity”. The “affinity for / recognition by the Y1 receptor (in words)” value with human Y1 receptor [2] is on record as “low affinity”.

Regarding [D-Ala1]PYY [SEQ ID NO: 6], the “affinity for / recognition by the Y2 receptor (in words)” value in the test with human Y2 receptor [1] is “high affinity equal to, for example, PYY3-36”. Besides, the “affinity for / recognition by the Y1 receptor (in words)” value with human Y1 receptor [2] is “reduced affinity”. Consider “Fluorescein-[Cys2,N-{(Ala-Arg-Arg-Arg-Ala-Ala-Arg-Ala)3}-Lys13,D-Cys27]PYY”, for which the “absorption to HiTrap heparin-sepharose” value in test [5] is “almost totally absorbed”.
